Results on one compound are retold here after ChEMBL document CHEMBL4321839, “Structure-activity relationships (SAR) of triazine derivatives: Promising antimicrobial agents” (Eur J Med Chem, 2020).

SMILES strings stand for the structures.

Format in all cases: functional
Test [1] has as its system Pseudomonas aeruginosa. Description: Antimicrobial activity against multi drug-resistant Pseudomonas aeruginosa CCARM 2109 assessed as reduction in microbial growth incubated for 18 to 24 hrs by two-fold serial dilution method.
Test [2] deals with Staphylococcus aureus. Description: Antimicrobial activity against methicillin-resistant Staphylococcus aureus CCARM 3090 assessed as reduction in microbial growth incubated for 18 to 24 hrs by two-fold serial dilution method.
The subject of test [3] is Pseudomonas aeruginosa. The test can be described thus: Antimicrobial activity against multi drug-resistant Pseudomonas aeruginosa CCARM 2095 assessed as reduction in microbial growth incubated for 18 to 24 hrs by two-fold serial dilution method.
For test [4], the system named is Staphylococcus aureus. Description: Antimicrobial activity against methicillin-resistant Staphylococcus aureus CCARM 3095 assessed as reduction in microbial growth incubated for 18 to 24 hrs by two-fold serial dilution method.
The test system of test [5] is Staphylococcus aureus. Description: Antimicrobial activity against methicillin-resistant Staphylococcus aureus CCARM 3089 assessed as reduction in microbial growth incubated for 18 to 24 hrs by two-fold serial dilution method.

Consider `CC[C@H](C)[C@H](NC(=O)CN)C(=O)NCC(=O)N[C@@H](C)C(=O)N[C@H](C(=O)N[C@@H](CC(C)C)C(=O)N[C@@H](CCCCN)C(=O)N[C@H](C(=O)N[C@@H](CC(C)C)C(=O)N[C@H](C(=O)N[C@H](C(=O)NCC(=O)N[C@@H](CC(C)C)C(=O)N1CCC[C@H]1C(=O)N[C@@H](C)C(=O)N[C@@H](CC(C)C)C(=O)N[C@H](C(=O)N[C@@H](CO)C(=O)N[C@@H](Cc1c[nH]c2ccccc12)C(=O)N[C@H](C(=O)N[C@@H](CCCCN)C(=O)N[C@@H](CCCNC(=N)N)C(=O)N[C@@H](CCCCN)C(=O)N[C@@H](CCCNC(=N)N)C(=O)N[C@@H](CCC(N)=O)C(=O)N[C@@H](CCC(N)=O)C(N)=O)[C@@H](C)CC)[C@@H](C)CC)[C@@H](C)O)[C@@H](C)O)C(C)C)C(C)C` [MELITTIN], for which the MIC with Pseudomonas aeruginosa [1] is 4 µM; in the test with Staphylococcus aureus [2], 4 µM; in the test on Pseudomonas aeruginosa [3], 2 µM; with Staphylococcus aureus [4], 2 µM; in the test on Staphylococcus aureus [5], 2 µM.

The MIC is the smallest concentration in the dilution series that meets the test's criterion for growth inhibition.
